Laboratory results as given in paper PMC11374718, “Unlocking opioid neuropeptide dynamics with genetically encoded biosensors” (Nature Neuroscience, 2024).

By UniProt entry, the sequences of proteins in these tests, tags left out. Where a name states a change or a piece, a line headed by the entry shows the natural chain unless it says otherwise.
UniProt P35372, whole entry V175Q, looked up: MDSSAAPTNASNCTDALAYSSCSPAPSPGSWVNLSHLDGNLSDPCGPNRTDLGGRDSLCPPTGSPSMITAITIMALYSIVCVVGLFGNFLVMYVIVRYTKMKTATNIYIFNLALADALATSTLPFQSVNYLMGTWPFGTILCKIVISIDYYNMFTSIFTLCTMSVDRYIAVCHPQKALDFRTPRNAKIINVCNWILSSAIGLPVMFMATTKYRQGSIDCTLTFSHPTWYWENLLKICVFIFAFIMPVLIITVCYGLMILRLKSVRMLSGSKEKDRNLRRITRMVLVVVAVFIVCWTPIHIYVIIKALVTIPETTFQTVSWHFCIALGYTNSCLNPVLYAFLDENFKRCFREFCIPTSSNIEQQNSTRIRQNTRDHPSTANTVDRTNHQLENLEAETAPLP
UniProt P41145: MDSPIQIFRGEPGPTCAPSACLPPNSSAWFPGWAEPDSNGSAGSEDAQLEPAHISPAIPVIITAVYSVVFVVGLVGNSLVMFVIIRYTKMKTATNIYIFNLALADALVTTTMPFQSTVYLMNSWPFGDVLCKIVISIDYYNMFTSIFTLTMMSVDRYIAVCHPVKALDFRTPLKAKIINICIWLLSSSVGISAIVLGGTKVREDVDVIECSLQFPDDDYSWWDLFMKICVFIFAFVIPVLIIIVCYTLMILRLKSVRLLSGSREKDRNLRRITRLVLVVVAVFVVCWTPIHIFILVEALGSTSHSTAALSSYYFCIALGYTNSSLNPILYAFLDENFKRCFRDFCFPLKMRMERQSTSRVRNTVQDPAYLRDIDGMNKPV

How the values were obtained:
µLight [1] = target: µLight (Homo sapiens, UniProt P35372, V175Q); type: binding
µLight [2] = target: µLight (Homo sapiens, UniProt P35372, INS270[…]/V175Q); type: cell-based
κLight = target: T1, κLight (Homo sapiens, UniProt P41145, INS261[…]/L259S/S262L/V164K); experiment: [3H]diprenorphine displacement binding, κLight cell membranes; conditions: read-out: κLight IC50
T1 construct: TlcnC (telencephalin) tag (C); PRC tag (C); ER2 (ER export motif FCYENEV) tag (C); expressed in transfected cells; dissociated hippocampal neurons (AAV9-hSyn); mouse brain (AAV9-hSyn)

Row | SMILES | μLight % bound at 10 μM (µLight [1]) [%] | EC50 (µLight [2]; read-out: μLight EC50) [nM] | IC50 (κLight) [nM] | IC50 (µLight [1]; read-out: μLight IC50) [nM] | μLight ΔF/F max (%) (µLight [2])
1 | CC[C@H](C)[C@H](NC(=O)[C@H](CCCN=C(N)N)NC(=O)[C@H](CCCNC(=N)N)NC(=O)[C@H](CC(C)C)NC(=O)[C@H](Cc1ccccc1)NC(=O)CNC(=O)CNC(=O)[C@@H](N)Cc1ccc(O)cc1)C(=O)N[C@@H](CCCN=C(N)N)C(=O)N1CCC[C@H]1C(=O)N[C@@H](CCCCN)C(=O)N[C@@H](CC(C)C)C(=O)N[C@@H](CCCCN)C(=O)N[C@@H](Cc1c[nH]c2ccccc12)C(=O)N[C@@H](CC(=O)O)C(=O)N[C@@H](CC(N)=O)C(=O)N[C@@H](CCC(N)=O)C(=O)O [DynA17, dynorphin A (1-17)] | 60±2 | – | – | – | –
2 | CC[C@H](C)[C@H](NC(=O)[C@H](CCCNC(=N)N)NC(=O)[C@H](CCCNC(=N)N)NC(=O)[C@H](CC(C)C)NC(=O)[C@H](Cc1ccccc1)NC(=O)CNC(=O)CNC(=O)[C@@H](N)Cc1ccc(O)cc1)C(=O)N[C@@H](CCCNC(=N)N)C(=O)N1CCC[C@H]1C(=O)N[C@@H](CCCCN)C(=O)N[C@@H](CC(C)C)C(=O)N[C@@H](CCCCN)C(=O)O [DynA13, dynorphin A1-13] | – | 3740 | – | – | –
3 | CC(C)C[C@H](NC(=O)[C@H](Cc1ccccc1)NC(=O)CNC(=O)CNC(=O)[C@@H](N)Cc1ccc(O)cc1)C(=O)N[C@@H](CCCNC(=N)N)C(=O)N[C@@H](CCCNC(=N)N)C(=O)N[C@@H](CCC(N)=O)C(=O)N[C@@H](Cc1ccccc1)C(=O)N[C@@H](CCCCN)C(=O)N[C@H](C(=O)N[C@H](C(=O)N[C@H](C(=O)O)[C@@H](C)O)C(C)C)C(C)C [DynB13] | 61±2 | – | 6 ± 2 | 10 ± 2 | –
4 | CSCC[C@H](NC(=O)[C@H](Cc1ccccc1)NC(=O)CNC(=O)CNC(=O)[C@@H](N)Cc1ccc(O)cc1)C(=O)O [ME, met-enkephalin] | 77±3 | – | – | – | 40.0±1.55
